The entries are a selection whose mix differs from that of the whole data set. Results filed as inconclusive are left out. The source made the active and inactive calls. Calls come from the whole dose curve; as a rule, active = well fitted inhibition curve with a large enough effect; inconclusive = small, poorly fitted or top-dose-only effect; inactive = no such curve, though single readings can be large or run the other way.
Assay: qHTS Assay for Inhibitors of the ERK Signaling Pathway using a Homogeneous Screening Assay; note: nearly all actives have a fitted effect of over 55% in size
Conditions: HEK293-V1b, vasopressin-stimulated pERK AlphaScreen; at 57.5 µM (top of the series)
% is set by controls: 0 for no effect and ±100 for the full control effect.

Row | Structure (SMILES) | activity, negative = inhibition
1 | O=[N+]([O-])C(Cl)(Cl)Cl | inactive: 10%
2 | CN(CCCl)CCCl | inactive: 7.54%

Source: PubChem BioAssay AID995 (National Center for Advancing Translational Sciences (NCATS), 2007)
